Data taken from patent US5414001A, “Antineoplastic pyrrolo[4,3,2-de]quinolin-8(1H)-ones” (American Cyanamid Company, priority 1993, dated 1995).

Tests used:
[1] = test system: HCT15 / SKBR3; assay: SRB cytotoxicity ratio HCT15/SKBR3 (topoisomerase resistance); assay type: cell-based, human; conditions: IC50 resistant / IC50 sensitive cell line, 2880 min
[2] = test system: CaCo2 / CX1; assay: SRB cytotoxicity ratio CaCo2/CX1 (growth kinetics); conditions: IC50 resistant / IC50 sensitive cell line, 2880 min
[3] = test system: panel of >20 human tumor cell lines; assay: In vitro tumor panel evaluation, Sulforhodamine B (SRB) cytotoxicity assay; assay type: cell-based; conditions: 48 hours
[4] = test system: Ovcar3 human ovarian carcinoma; assay: In vivo antitumor activity, Ovcar3 subcutaneous solid tumor; parameters: species or system human tumor in Balb/C nu/nu athymic mice; conditions: 5.0 mg/kg i.p., day 1, 5, 9; 3-4 week period; * Significant at P > 0.05
[5] = test system: MIP / SW620; assay: SRB cytotoxicity ratio MIP/SW620 (MDR, P-glycoprotein resistance); assay type: cell-based, human; conditions: IC50 resistant / IC50 sensitive cell line; MDR (pglycoprotein) resistance; 2880 min
[6] = test system: P388 murine leukemia; assay: In vivo antitumor activity, P388 ascites tumor; parameters: species or system murine (mice); conditions: 5.0 mg/kg i.p., day 1, 5, 9
[7] = test system: BR513; assay: Biochemical Induction Assay (BIA), DNA damage; assay type: cell-based; conditions: T = toxic
[8] = test system: B. subtilis rec+ 307; assay: Antibacterial agar diffusion assay; assay type: cell-based; conditions: H = hazy zones
[9] = test system: B. subtilis 17; assay: Antibacterial agar diffusion assay; assay type: cell-based; conditions: 1000 microgram/ml; H = hazy zones
[10] = test system: B. subtilis rec E4 308; assay: Antibacterial agar diffusion assay; assay type: cell-based; conditions: H = hazy zones

## Cn1cc2c3c1C(=O)C(N)=CC3=NCC2.O=C(O)C(F)(F)F
[1]
  HCT15/SKBR3 IC50 ratio: 1.9
[2]
  CaCO2/CX1 IC50 ratio: 0.3
[3]; Mean IC50 value for all 20 cell lines
  AVG IC50: 1 µg/mL
[3]; least sensitive cell line
  MAX IC50: 2.17 µg/mL
[3]; most sensitive cell line
  MIN IC50: 0.36 µg/mL
[4]
  Ovcar3 Min T/C %: 94%
[5]
  MIP/SW620 IC50 ratio: 1.1
[6]
  P388 ILS %: 9%
[7]; 250 microgram/ml
  BIA BR513: 8T
[7]; 1000 microgram/ml
  BIA BR513: 10T
[8]; 250 microgram/ml
  ZONES OF INHIBITION: 8 MM
[8]; 1000 microgram/ml
  ZONES OF INHIBITION: 13 MM
[9]
  ZONES OF INHIBITION: 11 MM
[10]; 250 microgram/ml
  ZONES OF INHIBITION: 9H
[10]; 1000 microgram/ml
  ZONES OF INHIBITION: 13H
